Source: PMC3307390 (Journal of Immunology (Baltimore, Md. : 1950), 2010)

Amino acid sequences for entries named in this document (tags omitted). Residues count along the entry.
UniProt P01920, 33-261 with the stated changes: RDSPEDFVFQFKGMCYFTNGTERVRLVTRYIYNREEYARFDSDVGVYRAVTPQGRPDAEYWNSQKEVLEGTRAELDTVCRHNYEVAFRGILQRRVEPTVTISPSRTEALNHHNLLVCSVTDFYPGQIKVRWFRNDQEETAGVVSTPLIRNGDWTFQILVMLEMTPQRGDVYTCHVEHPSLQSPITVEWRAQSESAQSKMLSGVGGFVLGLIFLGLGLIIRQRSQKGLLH

Molecular target: DQA1*0102/DQB1*0602 (Homo sapiens, UniProt P01909+P01920, A157G/A45G/C70R/E118A/E183D/E77G/F83G/G63E/H151Q/H199R/H252R/H253Q/I129T/I235V/I88M/INS77G/K197Q/L117V/L119F/L178F/L71W/L74F/L85Q/L91A/L98M/N214S/P87R/Q116E/Q76K/R102G/R240Q/R75S/R78G/S102Y/S185I/S41F/S97I/T121G/T122I/T172A/T86R/V229M/V68A/V73E/Y34C/Y41F/Y58L)
Experiment: biochemical
Assay type: binding

CC(C)C[C@H](NC(=O)[C@H](CC(=O)O)NC(=O)[C@H](CO)NC(=O)CNC(=O)[C@H](Cc1c[nH]cn1)NC(=O)[C@@H](NC(=O)[C@@H](NC(=O)[C@H](CS)NC(=O)[C@H](C)NC(=O)[C@H](CCCCN)NC(=O)[C@H](C)NC(=O)[C@H](CC(=O)O)NC(=O)[C@H](CCCNC(=N)N)NC(=O)[C@@H]1CCCN1C(=O)[C@@H](N)CC(N)=O)C(C)C)C(C)C)C(=O)N[C@@H](CCCCN)C(=O)O
IC50: 379 nM
